Test results from patent EP2952518A1, “Organic Phosphonium Salts, a Method for their Preparation, and their Use in Electrochemical Systems” (priority 2014, dated 2015).

Experiments:
[1] = dynamic viscosity of phosphonium salts and mixtures; type: physicochemical
[2] = temperature at loss of 10 % of the mass, nitrogen atmosphere, heating rate 5 K/min

Substance: trimethyl-n-propylphosphonium 1,1,1-trifluoro-N-(trifluoromethylsulfonyl)methane-sulfonamide
- Viscosity at 50 °C ([1]; 50 °C): 25.6 mPa·s
- Viscosity at 60 °C ([1]; 60 °C): 18.9 mPa·s
- Viscosity at 70 °C ([1]; 70 °C): 14.5 mPa·s
- Viscosity at 80 °C ([1]; 80 °C): 11.5 mPa·s
- Conductivity at 20 °C (20 °C): 0.07 mS/m
- Conductivity at 50 °C (50 °C): 0.673 S/m
- Conductivity at 60 °C (60 °C): 0.913 S/m
- Conductivity at 70 °C (70 °C): 1.173 S/m
- Conductivity at 80 °C (80 °C): 1.461 S/m
- Thermostability [2]: 414 °C
